Some results are limits rather than exact numbers.

Sequences of proteins named here, by UniProt entry; tags and fusion partners are left off.
UniProt P55055, whole entry: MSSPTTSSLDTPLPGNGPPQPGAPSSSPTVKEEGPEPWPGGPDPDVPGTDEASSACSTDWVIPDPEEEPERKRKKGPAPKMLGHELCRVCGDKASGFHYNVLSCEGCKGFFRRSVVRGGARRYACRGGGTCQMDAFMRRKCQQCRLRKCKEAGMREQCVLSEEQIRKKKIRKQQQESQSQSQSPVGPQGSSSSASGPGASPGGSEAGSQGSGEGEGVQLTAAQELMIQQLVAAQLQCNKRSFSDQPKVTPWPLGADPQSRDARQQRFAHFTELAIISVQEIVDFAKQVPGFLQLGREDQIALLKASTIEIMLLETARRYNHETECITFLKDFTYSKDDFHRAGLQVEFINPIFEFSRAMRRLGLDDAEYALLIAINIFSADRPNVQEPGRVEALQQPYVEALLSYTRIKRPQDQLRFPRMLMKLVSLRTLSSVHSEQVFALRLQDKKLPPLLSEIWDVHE

The assay concerns the target Oxysterols receptor LXR-beta (Homo sapiens, UniProt P55055).

Take `CS(=O)(=O)c1cccc(N2CCN(Cc3ccc(C(F)(F)F)nc3)C(c3ccc(Br)cc3)C2)c1` (centres undefined): the EC50 (in general, the concentration giving half of the maximal effect) stood at 1350 nM.

`CS(=O)(=O)c1cccc(N2CCN(Cc3ccc(C(F)(F)F)nc3)C(c3ccccc3Br)C2)c1` (centres undefined): the EC50 is 949 nM. This EC50 and that of the compound before are within 1.5-fold of each other. On to `CC(C)(C)OC(=O)N1CCN(c2cccc(S(C)(=O)=O)c2)CC1c1ccc(Br)cc1` (centres undefined), for which the response was half-maximal at 81 nM (EC50) and the IC50 (usually the concentration that inhibits the measured activity by half) is above 50000 nM.

Values taken from ChEMBL document CHEMBL5725956, “Piperazine derivatives as liver X receptor modulators” (2018).
